Values quoted from earlier work, collected in patent publication US6379651B1, “Oral-topical dosage forms for delivering antibacterials/antibiotics to oral cavity to eradicate H. pylori as a concomitant treatment for peptic ulcers and other gastro-intestinal diseases” (priority 1995, dated 2002).
Read-outs that look alike come from different tables or passages of the source.

How the values were obtained:
[1] = rats treated for three months; 160, 320, and 640 mg/kg body weight; cited from earlier work
[2] = dogs treated for six months; 160, 320, and 640 mg/kg body weight; cited from earlier work

For colloidal bismuth subcitrate [CBS], the “toxicity in chronic daily administration” value [1] is given as “No toxicity” and the “toxicity in chronic daily administration” value [2] is given as “No toxicity”.
